## Measured affinities in a library of Ab-14 heavy chain variants

Source: Li et al. 2023 (doi:10.1038/s41467-023-39022-2), MIT Lincoln Laboratory and A-Alpha Bio; data file from the FLAb repository.

All variants were tested on one target, the spike HR2 peptide PDVDLGDISGINAS (SARS-CoV-2).

Parent: Ab-14, a human scFv built as VH, a 15-residue (Gly4Ser)3 linker, VL. Only the CDRs of the heavy chain vary.
VH: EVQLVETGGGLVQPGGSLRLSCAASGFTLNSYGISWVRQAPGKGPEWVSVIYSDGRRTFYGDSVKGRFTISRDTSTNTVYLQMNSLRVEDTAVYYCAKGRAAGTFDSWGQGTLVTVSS
VL: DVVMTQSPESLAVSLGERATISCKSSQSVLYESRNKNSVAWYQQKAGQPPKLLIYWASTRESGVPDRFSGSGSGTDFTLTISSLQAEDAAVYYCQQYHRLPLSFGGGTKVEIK

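Phage display of a naive human antibody library on the peptide gave the parent. This is the validation round: designs drawn from the data on random variants, tested in the same kind of assay. Their group label is 14H_Rand (Rand: our label for a block that the file lists under HC and that is probably the random mutants of the ten best first-round binders). Affinity was read by AlphaSeq, a pooled yeast mating assay with surface-displayed partners. The frequency of each diploid, read from paired DNA barcodes, reflects how well the two displayed proteins bind. The ratio of observed to expected reads was calibrated, replicate by replicate, on BCL2-family standards whose Kd was known from biolayer interferometry. Mating was done six times.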

Changes read parent residue, position, new residue, counted from the first residue of the VH shown.
Scale: log10 of Kd in nM, estimated from mating counts; low values are strong binders.
Where no diploid with the target was found in that replicate, the entry reads "n.d.": below detection, most likely a poor binder, though not proof of it.
The range of this assay differs from that of the first round, and the authors advise against merging the two.

changes,log10 Kd (nM) by replicate,control signals
N30D G61T F105A D106L S107H,n.d. n.d. n.d. n.d. n.d. n.d.,0/18
G26V L29R S31H Y52I G61S S63A T104F S107E,n.d. n.d. n.d. n.d. n.d. n.d.,0/18
S31E Y32P G33L G103V S107Q,n.d. n.d. n.d. n.d. n.d. n.d.,0/18
S31E G33R Y52W G61T A101F T104M,n.d. n.d. n.d. n.d. n.d. n.d.,0/18
T28D S31P S53A R57W D62H A101F F105N D106N,n.d. n.d. n.d. n.d. n.d. n.d.,0/18
S31E G33L R57Q T58W G61T G99K A101F,n.d. n.d. n.d. n.d. n.d. n.d.,1/18 (1.51)
F27K S31E G103V S107Q,n.d. n.d. n.d. n.d. n.d. n.d.,0/18
G61D R100Q A101L T104M,n.d. n.d. n.d. n.d. n.d. n.d.,0/18
Y52F G61H A102G,n.d. 1.78 n.d. n.d. 1.63 2.60,0/18
F27H N30D S35T V64K F105A D106L,n.d. n.d. n.d. n.d. n.d. n.d.,0/18
T28M S31E F59V G61T A101F,1.61 1.38 1.48 1.64 1.97 1.68,1/18 (2.94)
I51S Y52S G61D R100Q A101L,0.22 -0.26 -0.14 -0.11 -0.31 0.28,0/18
L29G S31D I34A G103L T104H D106I,n.d. n.d. n.d. n.d. n.d. n.d.,0/18
G33T Y52E S53A R100T T104G F105N D106K S107Y,n.d. n.d. n.d. n.d. n.d. n.d.,1/18 (1.94)
S31D F59Q Y60E G61I A101P,n.d. n.d. n.d. n.d. n.d. n.d.,1/18 (2.83)
N30P S31D F59Q G61I,n.d. 2.43 n.d. 1.52 1.44 n.d.,1/18 (2.82)
G26T S31D T58N V64A G103L D106I,n.d. n.d. n.d. n.d. n.d. n.d.,0/18
T28D S31E G103N S107Q,n.d. n.d. n.d. n.d. n.d. n.d.,0/18
S31D D54V F59Q G61I,n.d. n.d. n.d. n.d. n.d. n.d.,0/18
S31D I51G F59Q G61I A102V,n.d. n.d. n.d. n.d. n.d. n.d.,0/18
S53A G61E F105N D106K,n.d. n.d. n.d. n.d. n.d. n.d.,0/18
I51A G61D R100Q A101L,n.d. 0.87 n.d. 0.81 3.18 4.34,1/18 (1.37)
S31E Y52K G61T A101F S107A,n.d. 1.34 n.d. n.d. n.d. n.d.,0/18
S31D G61D G103L D106I,n.d. n.d. n.d. n.d. n.d. n.d.,0/18
T28D R57T D62K G99Y T104W D106N,n.d. n.d. n.d. n.d. n.d. n.d.,0/18
S35G G61D R100Q A101L D106W,n.d. n.d. 2.66 n.d. n.d. n.d.,2/18 (1.91)
S53A G103R F105N D106A,n.d. n.d. n.d. n.d. n.d. n.d.,0/18
L29K N30D S35W R57I T58A F105A D106L,n.d. n.d. n.d. 2.29 n.d. n.d.,0/18
F27A S31E G103V S107Q,n.d. n.d. n.d. n.d. n.d. n.d.,0/18
I34D I51V G55E G61S S63P A102G,n.d. n.d. n.d. n.d. n.d. n.d.,0/18
L29A S31E D54K G61T A101F,n.d. n.d. n.d. n.d. n.d. n.d.,0/18
T28D I34Y S63V V64R R100V T104W D106N,n.d. n.d. n.d. n.d. n.d. n.d.,0/18
L29T S31D F59K G61I T104E,n.d. n.d. 1.41 n.d. n.d. n.d.,0/18
D54Y G61D R100Q A101L,n.d. n.d. n.d. n.d. n.d. n.d.,0/18
T28D I51G T104W D106N S107V,1.45 n.d. n.d. n.d. n.d. n.d.,1/18 (1.01)
S31W G103V S107Q,n.d. n.d. n.d. n.d. n.d. n.d.,0/18
G26Q S31F D54F G61S A101H A102G,n.d. n.d. n.d. n.d. n.d. n.d.,0/18
L29D N30D Y52P T104I F105A D106L,n.d. n.d. n.d. n.d. n.d. n.d.,0/18
N30D F59E F105L D106L,n.d. n.d. n.d. n.d. n.d. n.d.,0/18
N30D Y52V F105A D106T,n.d. n.d. n.d. n.d. n.d. n.d.,0/18
T28C S31D I51K F59Q G61I,1.50 n.d. n.d. n.d. n.d. n.d.,0/18
S31D G103K D106I,n.d. n.d. n.d. n.d. n.d. n.d.,0/18
S31M I34Q D54H F59Q G61I S107Y,n.d. n.d. n.d. n.d. n.d. n.d.,0/18

The closing 5 entries, repeated:

{"changes": "N30D F59E F105L D106L", "log10 Kd (nM) by replicate": "n.d. n.d. n.d. n.d. n.d. n.d.", "control signals": "0/18"}
{"changes": "N30D Y52V F105A D106T", "log10 Kd (nM) by replicate": "n.d. n.d. n.d. n.d. n.d. n.d.", "control signals": "0/18"}
{"changes": "T28C S31D I51K F59Q G61I", "log10 Kd (nM) by replicate": "1.50 n.d. n.d. n.d. n.d. n.d.", "control signals": "0/18"}
{"changes": "S31D G103K D106I", "log10 Kd (nM) by replicate": "n.d. n.d. n.d. n.d. n.d. n.d.", "control signals": "0/18"}
{"changes": "S31M I34Q D54H F59Q G61I S107Y", "log10 Kd (nM) by replicate": "n.d. n.d. n.d. n.d. n.d. n.d.", "control signals": "0/18"}

Three control strains display no target. For all heavy chain designs, 1% of the pairings with them gave a signal, with a median of 2.08 and one signal in twenty below 0.84, so weak values seen in few replicates may be background. For each scFv, signals with the empty controls are counted beside the result, with their mean in brackets.
The parent sequence was in this pool as ten entries: three were never detected, three once, and four in most replicates, with averages from 0.34 to 2.37.
In the paper, a design with two or fewer of six values counts as a poor binder.